For two molecules, IC50 and Ki results are on record in patent publication US20030022283A1 (published 2003).

The chains behind the UniProt entries cited, without tags or fusion partners. Where a name states a change or a piece, a line headed by the entry shows the natural chain unless it says otherwise. A line that says so, or that is headed by a name, gives the form on record, which may keep a tag or linker.
UniProt Q9ERC0, entry or part of it limits assumed, form in doubt: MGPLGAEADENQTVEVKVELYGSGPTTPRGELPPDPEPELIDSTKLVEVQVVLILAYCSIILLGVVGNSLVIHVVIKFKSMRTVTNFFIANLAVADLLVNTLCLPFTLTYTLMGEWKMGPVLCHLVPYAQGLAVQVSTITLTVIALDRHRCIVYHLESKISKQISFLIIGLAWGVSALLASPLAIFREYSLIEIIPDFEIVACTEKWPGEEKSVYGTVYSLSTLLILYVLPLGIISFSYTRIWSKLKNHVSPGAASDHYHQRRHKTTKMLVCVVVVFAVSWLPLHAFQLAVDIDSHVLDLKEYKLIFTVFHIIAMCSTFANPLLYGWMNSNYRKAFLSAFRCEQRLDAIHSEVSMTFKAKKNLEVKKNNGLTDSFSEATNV

Residue numbers refer to the chain shown, from its start.

In test [1] the target is T1, Rat NPY Y2 receptor (clone) (rat, UniProt Q9ERC0 1-381).
T1 construct: also called Rat Y2 (clone)
Kind of test: competition with [125I]PYY, rat Y2 clone.

Test [2] deals with T2, Rat NPY Y5 receptor, 6B clone (Y217.24.13.6B) (rat, UniProt Q63634 1-445).
T2 construct: 445 amino acid protein; assayed as membranes of transiently transfected COS-7 cells; Has proline where Y555/Y589/Y861 have leucine in the first transmembrane domain; also called RAT 6B Clone; Y5 clone
T2 sequence: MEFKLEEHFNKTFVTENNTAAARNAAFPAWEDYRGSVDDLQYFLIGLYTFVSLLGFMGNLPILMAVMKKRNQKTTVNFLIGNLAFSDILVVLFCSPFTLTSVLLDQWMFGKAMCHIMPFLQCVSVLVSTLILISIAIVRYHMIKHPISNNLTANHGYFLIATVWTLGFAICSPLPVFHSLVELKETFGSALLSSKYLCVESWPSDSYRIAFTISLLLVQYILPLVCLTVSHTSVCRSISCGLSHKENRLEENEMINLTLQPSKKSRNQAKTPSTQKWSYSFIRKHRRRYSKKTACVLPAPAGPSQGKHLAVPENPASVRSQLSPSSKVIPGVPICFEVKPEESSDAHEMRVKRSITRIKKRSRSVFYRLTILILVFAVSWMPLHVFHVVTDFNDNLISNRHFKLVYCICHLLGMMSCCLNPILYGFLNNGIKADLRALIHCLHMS
Kind of test: competition with [125I]PYY, membranes of transiently transfected COS-7 cells. An excerpt: (§1) All other peptides were purchased from either Peninsula (Belmont, Calif.) or Bachem (Torrance, Calif.).

In test [3] the target is T3, Rat NPY Y5 receptor, Y861 clone (rat, UniProt Q63634 1-445).
T3 construct: also called RAT Y861 Clone; Rat Y5 (Y861)
T3 sequence: T2 sequence with P61L
The description is as above.
Excerpt: as §1

In test [4] the target is T3, Rat NPY Y5 receptor, Y861 clone. Description: competition with [125I]PYY, membranes of stably transfected 293S cells.
Test [5] has as its target T4, Human NPY Y5 receptor (human, UniProt Q15761 1-445).
T4 construct: also called HUMAN Clone; human Y5
T4 sequence: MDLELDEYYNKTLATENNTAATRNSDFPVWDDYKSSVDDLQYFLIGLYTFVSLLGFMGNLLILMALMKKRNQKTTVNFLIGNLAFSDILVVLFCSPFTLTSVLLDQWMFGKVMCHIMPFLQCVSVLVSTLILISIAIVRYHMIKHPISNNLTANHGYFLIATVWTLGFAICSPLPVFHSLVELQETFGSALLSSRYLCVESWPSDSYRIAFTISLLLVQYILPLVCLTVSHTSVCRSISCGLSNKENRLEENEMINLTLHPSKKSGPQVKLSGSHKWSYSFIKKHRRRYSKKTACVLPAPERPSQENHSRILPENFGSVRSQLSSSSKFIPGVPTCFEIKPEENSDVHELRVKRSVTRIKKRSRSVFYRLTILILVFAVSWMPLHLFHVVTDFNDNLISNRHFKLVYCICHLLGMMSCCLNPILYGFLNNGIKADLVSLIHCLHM
Description: competition with [125I]PYY, membranes of stably transfected 293 cells.

In test [1], SALRHYINLITRQRY (peptide, UniProt P01303 50-64, looked up, range 22-36; also called r/h(22-36)NPY) [rat/human (22-36)NPY] returned an IC50 of 0.89 nM.

For the molecule YYSALRHYINLITRQRY (peptide, UniProt P01303 48-64, looked up, range 20-36; also called r/h(20-36)NPY) [rat/human (20-36)NPY], the inhibition constant (Ki) in test [2] was found to be 330 nM; in test [3] it was 587 nM; in test [4] it was 108 nM; in test [5], 429 nM.
